From patent US9725439B2, “Quinazoline derivative and preparation method therefor” (CHIA TAI TIANQING PHARMACEUTICAL GROUP CO., LTD., priority 2013, dated 2017)

Amino acid sequences for entries named in this document (tags omitted). Residues count along the entry.
UniProt P00533, 25-1210: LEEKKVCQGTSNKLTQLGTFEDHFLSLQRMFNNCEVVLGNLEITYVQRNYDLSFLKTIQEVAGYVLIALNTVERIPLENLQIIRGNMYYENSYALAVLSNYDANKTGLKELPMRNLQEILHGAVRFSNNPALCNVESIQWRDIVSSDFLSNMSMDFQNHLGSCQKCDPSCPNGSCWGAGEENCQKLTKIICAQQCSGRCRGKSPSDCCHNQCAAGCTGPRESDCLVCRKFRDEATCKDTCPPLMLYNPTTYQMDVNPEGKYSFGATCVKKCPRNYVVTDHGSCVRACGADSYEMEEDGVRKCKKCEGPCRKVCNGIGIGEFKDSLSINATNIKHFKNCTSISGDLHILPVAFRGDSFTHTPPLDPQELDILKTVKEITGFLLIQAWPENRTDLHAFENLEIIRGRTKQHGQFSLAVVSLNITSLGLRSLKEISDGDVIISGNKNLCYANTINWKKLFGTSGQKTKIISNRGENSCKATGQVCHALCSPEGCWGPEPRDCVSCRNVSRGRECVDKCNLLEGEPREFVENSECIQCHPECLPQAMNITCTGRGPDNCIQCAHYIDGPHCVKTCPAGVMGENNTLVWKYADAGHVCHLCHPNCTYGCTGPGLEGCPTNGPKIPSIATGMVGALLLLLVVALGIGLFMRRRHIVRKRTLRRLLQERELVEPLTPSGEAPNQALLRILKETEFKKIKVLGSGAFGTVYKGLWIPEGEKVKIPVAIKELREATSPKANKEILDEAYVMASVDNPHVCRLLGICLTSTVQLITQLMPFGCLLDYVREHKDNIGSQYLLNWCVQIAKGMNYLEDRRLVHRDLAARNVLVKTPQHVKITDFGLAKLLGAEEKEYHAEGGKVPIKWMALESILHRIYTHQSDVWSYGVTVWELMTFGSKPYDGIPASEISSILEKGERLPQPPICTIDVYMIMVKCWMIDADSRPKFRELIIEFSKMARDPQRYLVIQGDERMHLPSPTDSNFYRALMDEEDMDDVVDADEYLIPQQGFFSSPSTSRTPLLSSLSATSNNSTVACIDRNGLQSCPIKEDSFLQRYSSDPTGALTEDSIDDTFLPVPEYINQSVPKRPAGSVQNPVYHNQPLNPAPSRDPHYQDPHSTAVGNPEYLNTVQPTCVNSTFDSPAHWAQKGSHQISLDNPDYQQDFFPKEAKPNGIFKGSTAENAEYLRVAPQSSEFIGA
UniProt P00533, 25-1210 T790M/L858R: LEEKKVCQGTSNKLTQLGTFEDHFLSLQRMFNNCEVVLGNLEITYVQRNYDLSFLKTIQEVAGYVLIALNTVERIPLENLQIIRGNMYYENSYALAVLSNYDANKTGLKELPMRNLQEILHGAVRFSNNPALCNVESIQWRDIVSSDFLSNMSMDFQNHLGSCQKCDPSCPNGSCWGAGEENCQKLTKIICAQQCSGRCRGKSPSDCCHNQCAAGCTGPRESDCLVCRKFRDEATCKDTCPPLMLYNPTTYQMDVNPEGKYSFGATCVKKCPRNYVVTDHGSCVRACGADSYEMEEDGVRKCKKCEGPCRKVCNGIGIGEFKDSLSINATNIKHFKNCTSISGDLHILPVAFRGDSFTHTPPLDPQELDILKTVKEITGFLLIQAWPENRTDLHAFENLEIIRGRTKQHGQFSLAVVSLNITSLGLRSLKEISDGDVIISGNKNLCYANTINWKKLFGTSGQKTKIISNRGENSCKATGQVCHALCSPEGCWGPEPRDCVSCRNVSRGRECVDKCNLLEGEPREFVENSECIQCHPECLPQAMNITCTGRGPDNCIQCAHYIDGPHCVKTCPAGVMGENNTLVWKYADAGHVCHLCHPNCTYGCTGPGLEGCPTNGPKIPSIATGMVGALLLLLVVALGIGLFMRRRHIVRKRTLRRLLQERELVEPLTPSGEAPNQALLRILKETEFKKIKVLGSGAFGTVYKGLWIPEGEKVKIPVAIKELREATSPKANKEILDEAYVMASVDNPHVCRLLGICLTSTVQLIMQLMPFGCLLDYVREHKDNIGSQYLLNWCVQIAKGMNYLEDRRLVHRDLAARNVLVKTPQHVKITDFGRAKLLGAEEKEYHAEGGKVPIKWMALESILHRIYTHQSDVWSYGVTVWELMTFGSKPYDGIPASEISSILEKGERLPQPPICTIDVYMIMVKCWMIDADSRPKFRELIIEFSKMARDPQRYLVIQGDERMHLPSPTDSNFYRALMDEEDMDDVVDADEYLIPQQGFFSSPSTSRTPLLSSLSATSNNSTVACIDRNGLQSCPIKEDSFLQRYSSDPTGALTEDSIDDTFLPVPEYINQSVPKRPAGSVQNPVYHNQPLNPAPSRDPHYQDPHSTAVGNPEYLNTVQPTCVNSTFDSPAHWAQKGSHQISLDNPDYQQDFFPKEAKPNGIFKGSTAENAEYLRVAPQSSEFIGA

Tests used:
EGFR = EGFR (Homo sapiens (Human), UniProt P00533); experiment: In vitro enzymology test (HTRF kinase activity); assay type: biochemical; settings: read-out: Enzyme activity (IC50 nM) EGFR
EGFR (T790M, L858R) = EGFR (T790M, L858R) (Homo sapiens (Human), UniProt P00533, L858R/T790M); experiment: In vitro enzymology test (HTRF kinase activity); assay type: biochemical; settings: read-out: Enzyme activity (IC50 nM) EGFR-L858R/T790M

Row | Structure (SMILES) | IC50 (EGFR) [nM] | IC50 (EGFR (T790M, L858R)) [nM]
1 | C=CC(=O)N1CCC(Nc2cc3c(Nc4ccc(F)c(Cl)c4)ncnc3cc2O[C@H]2CCOC2)C1 (stereo partly drawn) [Example 6, (S)—N^6-(1-acryloylpyrrolidin-3-yl)-N^4-(3-chloro-4-fluorophenyl)-7-(tetrahydrofuran-3-yloxy)quinazoline-4,6-diamine] | – | 52.1
2 | C#Cc1cccc(Nc2ncnc3cc(OC)c(NC4CCN(C(=O)C=C)CC4)cc23)c1 [Example 10, N^6-(1-acryloylpiperidin-4-yl)-N^4-(3-ethynylphenyl)-7-methoxyquinazoline-4,6-diamine] | – | 8.6
3 | C=CC(=O)N1CCC(Nc2cc3c(Nc4cccc(Br)c4)ncnc3cc2OC)CC1 [Example 15, N^6-(1-acryloylpiperidin-4-yl)-N^4-(3-bromophenyl)-7-methoxyquinazoline-4,6-diamine] | 0.3 | 2.9
4 | C=CC(=O)N1CC(Nc2cc3c(Nc4ccc(F)c(Cl)c4)ncnc3cc2OCCN2CCOCC2)C1 [Example 18, N^6-(1-acryloylazetidin-3-yl)-N^4-(3-chloro-4-fluorophenyl)-7-(2-morpholinylethoxy) quinazoline-4,6-diamine] | – | 11.1

Now those with a lower IC50 (EGFR (T790M, L858R)), led by results:

Row | IC50 (EGFR) [nM] | IC50 (EGFR (T790M, L858R)) [nM] | Structure (SMILES)
5 | 0.4 | 2.1 | C=CC(=O)N1CCC(Nc2cc3c(Nc4ccc(F)c(Cl)c4)ncnc3cc2O[C@H]2CCOC2)CC1 [Example 4, (S)—N^6-(1-acryloylpiperidin-4-yl)-N^4-(3-chloro-4-fluorophenyl)-7-(tetrahydrofuran-3-yloxy)quinazoline-4,6-diamine]
6 | 0.2 | 2 | C=CC(=O)N1CCC(Nc2cc3c(Nc4ccc(F)c(Cl)c4)ncnc3cc2OC)CC1 [Example 2, N^6-(1-acryloylpiperidin-4-yl)-N^4-(3-chloro-4-fluorophenyl)-7-methoxyquinazoline-4,6-diamine]
7 | – | 1.2 | C=CC(=O)N1CC(Nc2cc3c(Nc4ccc(F)c(Cl)c4)ncnc3cc2OCCOC)C1 [Example 16, N^6-(1-acryloylazetidin-3-yl)-N^4-(3-chloro-4-fluorophenyl)-7-(2-methoxyethoxy)quinazoline-4,6-diamine]
8 | 0.2 | 1.2 | C=CC(=O)N1CCC(Nc2cc3c(Nc4ccc(F)c(Cl)c4)ncnc3cc2OCCOC)CC1 [Example 17, N^6-(1-acryloylpiperidin-4-yl)-N^4-(3-chloro-4-fluorophenyl)-7-(2-methoxyethoxy)quinazoline-4,6-diamine]
